Measurements taken from ChEMBL document CHEMBL1145160, “Neoclerodane diterpenes as a novel scaffold for mu opioid receptor ligands” (J Med Chem, 2005).

Experiments:
Mus musculus [1] = experiment: In vivo opioid receptor activity in mouse tail flick assay; format: functional
Mus musculus [2] = experiment: In vivo opioid receptor activity in mouse p-phenylquinone writhing assay; format: functional

For `CN(C(=O)Cc1cccc2occc12)[C@H]1CC[C@@]2(CCCO2)C[C@@H]1N1CCCC1`, the ED50 (Mus musculus [1]) was 0.015 mg/kg and the ED50 (Mus musculus [2]) was 1.5 µg/kg.
